# Experimental data from ChEMBL document CHEMBL1144273, “Synthesis and SAR studies of 3-phenoxypropyl piperidine analogues as ORL1 (NOP) receptor agonists” (Bioorg Med Chem Lett, 2005).
# Tests used:
# [1] = species: Homo sapiens; assay: Ratio for affinity of opioid receptor kappa 1 to that of opioid receptor like 1
# [2] = species: Homo sapiens; assay: Ratio for affinity of Opioid receptor delta 1 to that of opioid receptor like 1
compound,measurement,setting,value
COc1ccc(C)c(OC(CCN2CCC(n3c(=O)[nH]c4ccccc43)CC2)C(C)C)c1 (configuration not stated) [ORGANON],Ratio,[1],25
same,Ratio,[2],191
